# Measured values taken from ChEMBL document CHEMBL1143672, “Synthesis and pharmacology of site-specific cocaine abuse treatment agents: restricted rotation analogues of methylphenidate” (J Med Chem, 2007).
# By UniProt entry, the sequences of proteins in these tests, tags left out.
# UniProt Q9WTR4, whole entry: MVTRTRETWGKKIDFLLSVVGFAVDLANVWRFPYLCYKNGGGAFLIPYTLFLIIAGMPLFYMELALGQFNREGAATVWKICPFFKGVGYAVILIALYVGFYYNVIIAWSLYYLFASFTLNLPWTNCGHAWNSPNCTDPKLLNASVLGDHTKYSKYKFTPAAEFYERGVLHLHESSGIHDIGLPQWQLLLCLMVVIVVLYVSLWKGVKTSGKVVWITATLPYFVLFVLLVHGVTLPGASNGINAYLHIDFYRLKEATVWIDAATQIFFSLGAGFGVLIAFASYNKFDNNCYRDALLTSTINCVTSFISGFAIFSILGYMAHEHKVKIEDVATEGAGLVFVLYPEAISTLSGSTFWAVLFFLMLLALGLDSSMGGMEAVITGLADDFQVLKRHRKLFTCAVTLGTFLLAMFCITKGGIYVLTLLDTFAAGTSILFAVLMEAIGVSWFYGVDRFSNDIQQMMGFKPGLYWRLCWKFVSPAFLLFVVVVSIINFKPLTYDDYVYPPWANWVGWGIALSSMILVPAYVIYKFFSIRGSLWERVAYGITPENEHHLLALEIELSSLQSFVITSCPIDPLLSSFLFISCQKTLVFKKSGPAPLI
# Target: Norepinephrine transporter (Rattus norvegicus, UniProt Q9WTR4)
# Assay: Displacement of [3H]nisoxetine from NET in Sprague-Dawley rat cortical tissue
structure (smiles),measurement,value
COC(=O)[C@H]1[C@@H](OC(=O)c2ccccc2)C[C@@H]2CC[C@H]1N2C [COCAINE HYDROCHLORIDE],Ki,1.93 µM

# Counter-ions that a name gives are not always drawn.
